ChEMBL document CHEMBL1201862, “PubChem BioAssay data set” (2004)
The entries are a selection whose mix differs from that of the whole data set. Only a part of the results of these assays is listed, not drawn at random. Activity calls are given as the source filed them. The rule behind the calls is not given here.

Protein sequences, listed by entry. Tags and fused reporters are not part of them. Lines headed by an entry give the natural chain unless they say otherwise; changes in a name come on top.
UniProt O75496: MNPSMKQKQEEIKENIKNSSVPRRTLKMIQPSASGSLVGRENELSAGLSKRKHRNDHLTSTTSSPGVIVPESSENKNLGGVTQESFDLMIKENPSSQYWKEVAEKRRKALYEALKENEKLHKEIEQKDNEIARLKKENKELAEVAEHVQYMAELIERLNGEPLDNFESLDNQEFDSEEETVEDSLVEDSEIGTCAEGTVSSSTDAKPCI

What follows are compounds tested against Geminin (Homo sapiens) (UniProt O75496) (assay: A quantitative high throughput screen for small molecules that induce DNA re-replication in SW480 colon adenocarcinoma cells.).
Format: functional, cell-based

Row | SMILES | Potency
1 | O=C(O)/C=C\C(=O)O | inactive
2 | O=C(O)/C=C/C(=O)O | inactive
